Literature values as cited in Sander's compilation of Henry's law constants (doi:10.1016/j.chemosphere.2007.04.088).

Test: Henry solubility constant Hcp at 298.15 K (mol/(m3 Pa))
Settings: reference: Warneck (2007); cited value

CCl [chloromethane]
Henry solubility constant Hcp: 0.0011
